Measurements from US8551717B2, “Method for determining sumoylation” (Medizinische Hochschule Hannover, priority 2008, dated 2013).

System: STAT1
Assay: Interplay of STAT1 Y701 phosphorylation and K703 SUMOylation by USDDS, western blot
Assay type: cell-based, human
Settings: HEK293 transfectants; interferon-β stimulation ½ h or 1 h; α-pY701 STAT1 blot
Excerpt: To identify new SUMOylation substrates and to study the function of SUMOylation the Ubc9/substrate dimerisation-dependent SUMOylation system (USDDS) was developed which consists of fusions of the SUMOylation substrate and of the SUMO-conjugating enzyme Ubc9 to the chemically activatable heterodimerisation domains FKBP and FRB, respectively, as shown in FIG. 2. When the substrate protein fused to FKBP is coexpressed with Ubc9-FRB, treatment of HEK293 cells with the rapamycin-related dimerizer AP21967 induces SUMOylation of the substrate protein fused to FKBP at its specific SUMOylation site. […] Dependent on an EcoRl site in the coding sequence, seven C-terminal amino acids of the human STAT1a in the STAT1-FKBP/FRB fusion proteins are missing. […]
The USDDS was used to study the interplay of Y701 phosphorylation and the K703 SUMOylation in vivo (FIG. 5). […] The proteins of the transfectants were immunoblotted with a phospho (p)Y701 STAT1 antibody (α-pY701 STAT1), stripped and re-probed with a STAT1 antibody (α-STAT1) to detect also non-phosphorylated and SUMOylated STAT1.The proteins of the transfectants then were analyzed by a pY701-STAT1 specific antibody, that recognizes the tyrosine 701 phosphorylation also in SUMOylated STAT1 (FIG. 5). […] However, pY701 could never be detected in the gel region where SUMOylated STAT1-FRB migrates. […]

B1: interferon-β: interferon-β used to induce STAT1 phosphorylation (protein, UniProt P01574 22-187, looked up)
Interferon beta: MSYNLLGFLQRSSNFQCQKLLWQLNGRLEYCLKDRMNFDIPEEIKQLQQFQKEDAALTIYEMLQNIFAIFRQDSSSTGWNETIVENLLANVYHQINHLKTVLEEKLEKEDFTRGKLMSSLHLKRYYGRILHYLKAKEYSHCAWTIVRVEILRNFYFINRLTGYLRN
In the case of B1, the “Y701 phosphorylation of endogenous STAT1” value is reported as “induced Y701 phosphorylation” and the “Y701 phosphorylation of the STAT1-FRB fusion protein” value is reported as “induced Y701 phosphorylation”.
